Laboratory results reported in paper PMC2682676 (Diabetes, 2009).

Conditions: after stop of the 180 min infusion; approached fasting levels by 360 min

For CC[C@H](C)[C@H](NC(=O)[C@H](CO)NC(=O)[C@H](Cc1ccc(O)cc1)NC(=O)[C@H](CC(=O)O)NC(=O)[C@H](CO)NC(=O)[C@@H](NC(=O)[C@H](Cc1ccccc1)NC(=O)[C@@H](NC(=O)CNC(=O)[C@H](CCC(=O)O)NC(=O)[C@H](C)NC(=O)[C@@H](N)Cc1ccc(O)cc1)[C@@H](C)O)[C@@H](C)CC)C(=O)N[C@@H](C)C(=O)N[C@@H](CCSC)C(=O)N[C@@H](CC(=O)O)C(=O)N[C@@H](CCCCN)C(=O)N[C@H](C(=O)N[C@@H](Cc1c[nH]cn1)C(=O)N[C@@H](CCC(N)=O)C(=O)N[C@@H](CCC(N)=O)C(=O)N[C@@H](CC(=O)O)C(=O)N[C@@H](Cc1ccccc1)C(=O)N[C@H](C(=O)N[C@@H](CC(N)=O)C(=O)N[C@@H](Cc1c[nH]c2ccccc12)C(=O)N[C@@H](CC(C)C)C(=O)N[C@@H](CC(C)C)C(=O)N[C@@H](C)C(=O)N[C@@H](CCC(N)=O)C(=O)N[C@@H](CCCCN)C(=O)NCC(=O)N[C@@H](CCCCN)C(=O)N[C@@H](CCCCN)C(=O)N[C@@H](CC(N)=O)C(=O)N[C@@H](CC(=O)O)C(=O)N[C@@H](Cc1c[nH]c2ccccc12)C(=O)N[C@@H](CCCCN)C(=O)N[C@@H](Cc1c[nH]cn1)C(=O)N[C@@H](CC(N)=O)C(=O)N[C@H](C(=O)N[C@H](C(=O)N[C@@H](CCC(N)=O)C(=O)O)[C@@H](C)O)[C@@H](C)CC)C(C)C)[C@@H](C)CC [GIP, Glucose-dependent insulinotropic polypeptide], which “plasma GIP levels upon termination of infusion” value is on record?
The value was “rapidly decreased”.
